According to publication PMC6968506, “Synthesis, in vitro screening and molecular docking of isoquinolinium-5-carbaldoximes as acetylcholinesterase and butyrylcholinesterase reactivators” (2020):

Tests used:
[1] = target: VX-hAChE (human erythrocyte AChE) (Homo sapiens, UniProt P22303); assay: Reactivation of VX-inhibited hAChE; conditions: 10 min, 37 °C
[2] = target: Sarin-hAChE (human erythrocyte AChE) (Homo sapiens, UniProt P22303); assay: Reactivation of sarin-inhibited hAChE; conditions: 10 min, 37 °C

## NC(=O)c1cc[n+](CCC[n+]2ccc3c(C=NO)cccc3c2)cc1.[Br-].[Br-]
[1]; oxime 10 µM
  VX-hAChE % reactivation ± SD: 0.76 ± 0.16%
[1]; oxime 100 µM
  VX-hAChE % reactivation ± SD: 2.83 ± 0.16%
[2]; oxime 10 µM
  Sarin-hAChE % reactivation ± SD: 1.23 ± 0.35%
[2]; oxime 100 µM
  Sarin-hAChE % reactivation ± SD: 2.46 ± 0.2%
